How the values were obtained:
physchem = conditions: 1-octanol/aqueous buffer, pH 7.4, LogD pH 7.4, pH 7.4
hERG potassium channel = hERG potassium channel (Homo sapiens (Human), UniProt Q12809)
[1] = biological target: recombinant human Estrogen Receptor alpha ligand binding domain (ER alpha-LBD (GST)) (Homo sapiens (Human), UniProt P03372); test: ERα binding assay (LanthaScreen TR-FRET competition)
[2] = biological target: T1, Estrogen Receptor (ERα) in MCF-7 cells (Homo sapiens (Human), UniProt P03372); test: MCF-7 ER down-regulation assay (immuno-fluorescence); format: cell-based
[3] = biological target: estrogen receptor (ERα) in CAMA-1 cells (Homo sapiens (Human), UniProt P03372); test: Western blotting assay, ER down-regulation in CAMA-1; format: cell-based; conditions: CAMA-1, 100 nM compound, 48 h, vs 100 nM fulvestrant
[4] = biological target: T1, Estrogen Receptor (ERα) in MCF-7 cells; test: Western blotting assay, ER down-regulation in MCF-7; format: cell-based; conditions: MCF-7, 100 nM compound, 48 h, vs 100 nM fulvestrant

The chains behind the UniProt entries cited, without tags or fusion partners. Where a name states a change or a piece, a line headed by the entry shows the natural chain unless it says otherwise. Residues count along the entry.
UniProt Q12809: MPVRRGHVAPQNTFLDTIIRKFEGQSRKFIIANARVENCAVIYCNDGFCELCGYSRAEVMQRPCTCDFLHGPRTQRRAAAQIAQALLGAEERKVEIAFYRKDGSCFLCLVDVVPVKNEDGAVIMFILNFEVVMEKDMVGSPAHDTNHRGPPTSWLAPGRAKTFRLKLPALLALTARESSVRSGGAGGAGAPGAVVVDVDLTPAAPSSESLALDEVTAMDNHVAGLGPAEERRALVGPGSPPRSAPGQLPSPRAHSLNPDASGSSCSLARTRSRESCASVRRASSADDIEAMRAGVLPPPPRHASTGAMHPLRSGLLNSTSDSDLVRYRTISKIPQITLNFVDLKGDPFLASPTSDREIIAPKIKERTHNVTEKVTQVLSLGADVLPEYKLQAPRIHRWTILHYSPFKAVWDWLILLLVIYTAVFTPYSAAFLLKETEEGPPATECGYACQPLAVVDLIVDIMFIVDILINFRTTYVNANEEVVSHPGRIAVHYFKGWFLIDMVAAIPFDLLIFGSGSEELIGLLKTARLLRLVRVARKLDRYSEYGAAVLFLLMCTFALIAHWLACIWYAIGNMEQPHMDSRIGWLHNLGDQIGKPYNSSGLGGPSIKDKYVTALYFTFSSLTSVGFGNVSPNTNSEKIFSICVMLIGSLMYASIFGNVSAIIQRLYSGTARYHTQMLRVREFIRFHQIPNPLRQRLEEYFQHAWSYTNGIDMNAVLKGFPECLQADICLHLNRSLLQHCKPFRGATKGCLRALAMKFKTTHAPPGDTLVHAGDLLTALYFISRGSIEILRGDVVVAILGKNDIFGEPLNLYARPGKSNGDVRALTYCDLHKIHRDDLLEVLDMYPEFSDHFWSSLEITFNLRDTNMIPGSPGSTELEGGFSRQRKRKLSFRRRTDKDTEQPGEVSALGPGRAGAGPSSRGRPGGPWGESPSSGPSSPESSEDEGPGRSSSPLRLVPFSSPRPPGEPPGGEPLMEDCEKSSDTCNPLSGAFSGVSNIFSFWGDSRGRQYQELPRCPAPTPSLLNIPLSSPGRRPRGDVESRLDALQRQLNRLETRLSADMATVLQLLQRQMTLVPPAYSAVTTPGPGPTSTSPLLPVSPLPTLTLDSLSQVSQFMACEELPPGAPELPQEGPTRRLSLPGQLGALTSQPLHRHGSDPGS
UniProt P03372, 307-554: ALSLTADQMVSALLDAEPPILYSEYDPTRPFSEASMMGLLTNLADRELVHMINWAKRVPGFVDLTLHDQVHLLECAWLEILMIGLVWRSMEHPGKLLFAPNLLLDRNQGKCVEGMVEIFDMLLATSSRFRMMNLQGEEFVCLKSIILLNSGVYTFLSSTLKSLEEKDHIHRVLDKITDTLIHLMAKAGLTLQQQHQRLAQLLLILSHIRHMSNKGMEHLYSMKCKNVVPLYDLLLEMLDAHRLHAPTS
UniProt P03372, whole entry: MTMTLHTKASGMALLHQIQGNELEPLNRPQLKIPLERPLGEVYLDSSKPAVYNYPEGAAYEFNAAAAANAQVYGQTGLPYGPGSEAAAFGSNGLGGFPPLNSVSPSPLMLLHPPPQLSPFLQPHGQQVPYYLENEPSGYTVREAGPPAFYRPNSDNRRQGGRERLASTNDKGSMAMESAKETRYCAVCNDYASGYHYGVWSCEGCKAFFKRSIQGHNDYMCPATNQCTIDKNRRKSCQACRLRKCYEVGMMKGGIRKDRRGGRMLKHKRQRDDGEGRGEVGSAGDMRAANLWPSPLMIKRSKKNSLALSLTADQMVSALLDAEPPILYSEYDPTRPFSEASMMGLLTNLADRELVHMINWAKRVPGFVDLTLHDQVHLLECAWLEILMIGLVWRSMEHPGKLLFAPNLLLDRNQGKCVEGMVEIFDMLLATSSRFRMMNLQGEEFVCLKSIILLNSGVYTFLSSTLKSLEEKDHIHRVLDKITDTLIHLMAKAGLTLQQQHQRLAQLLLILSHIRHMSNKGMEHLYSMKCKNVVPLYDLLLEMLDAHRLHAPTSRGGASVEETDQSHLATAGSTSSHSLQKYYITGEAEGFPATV

| SMILES | logD (physchem) | IC50 (hERG potassium channel) | also measured |
| --- | --- | --- | --- |
| C[C@@H]1Cc2c([nH]c3ccccc23)[C@@H](c2cccc(NCCNCCCF)c2)N1CC1(F)COC1 [Example 2, N-1-(3-((1R,3R)-2-((3-fluorooxetan-3-yl)methyl)-3-methyl-2,3,4,9-tetrahydro-1H-pyrido[3,4-b]indol-1-yl)phenyl)-N-2-(3-fluoropropyl)ethane-1,2-diamine] | 3.1 |  |  |
| COc1ccc(OCCNCCCF)cc1[C@@H]1c2[nH]c3ccccc3c2C[C@@H](C)N1CC1(F)COC1 [Example 4, 3-Fluoro-N-(2-(3-((1R,3R)-2-((3-fluorooxetan-3-yl)methyl)-3-methyl-2,3,4,9-tetrahydro-1H-pyrido[3,4-b]indol-1-yl)-4-methoxyphenoxy)ethyl)propan-1-amine] | 2.5 |  |  |
| COc1ccc(OCCNCCCF)cc1[C@@H]1c2[nH]c3ccccc3c2C[C@@H](C)N1CC(F)F [Example 6, N-(2-(3-((1R,3R)-2-(2,2-difluoroethyl)-3-methyl-2,3,4,9-tetrahydro-1H-pyrido[3,4-b]indol-1-yl)-4-methoxyphenoxy)ethyl)-3-fluoropropan-1-amine] | 3.2 | 5.4 µM |  |
| COc1ccc(OCCNCCCF)cc1[C@@H]1c2[nH]c3ccccc3c2C[C@@H](C)N1CC(F)(F)CO [Example 8, 2,2-Difluoro-3-((1R,3R)-1-(5-(2-((3-fluoropropyl)amino)ethoxy)-2-methoxyphenyl)-3-methyl-1,3,4,9-tetrahydro-2H-pyrido[3,4-b]indol-2-yl)propan-1-ol] | 2.6 | 4.6 µM |  |
| C[C@@H]1Cc2c([nH]c3ccccc23)[C@@H](c2cccc(OCCNCCCF)c2)N1CC(F)(F)F [Example 16, 3-fluoro-N-(2-(3-((1R,3R)-3-methyl-2-(2,2,2-trifluoroethyl)-2,3,4,9-tetrahydro-1H-pyrido[3,4-b]indol-1-yl)phenoxy)ethyl)propan-1-amine] | 4.1 |  |  |
| Cc1ccc(OCCNCCCF)cc1[C@@H]1c2[nH]c3ccccc3c2C[C@@H](C)N1CC(F)(F)F [Example 17, 3-fluoro-N-(2-(4-methyl-3-((1R,3R)-3-methyl-2-(2,2,2-trifluoroethyl)-2,3,4,9-tetrahydro-1H-pyrido[3,4-b]indol-1-yl)phenoxy)ethyl)propan-1-amine] |  | 4.1 µM |  |
| Cc1cc(OCCNCCCF)cc([C@@H]2c3[nH]c4ccccc4c3C[C@@H](C)N2CC(F)(F)F)c1 [Example 18, 3-fluoro-N-(2-(3-methyl-5-((1R,3R)-3-methyl-2-(2,2,2-trifluoroethyl)-2,3,4,9-tetrahydro-1H-pyrido[3,4-b]indol-1-yl)phenoxy)ethyl)propan-1-amine] | 4.5 | 4.5 µM |  |
| Cc1ccc([C@@H]2c3[nH]c4ccccc4c3C[C@@H](C)N2CC(F)(F)F)cc1OCCNCCCF [Example 19, 3-fluoro-N-(2-(2-methyl-5-((1R,3R)-3-methyl-2-(2,2,2-trifluoroethyl)-2,3,4,9-tetrahydro-1H-pyrido[3,4-b]indol-1-yl)phenoxy)ethyl)propan-1-amine] | 4.6 |  |  |
| Cc1c(OCCNCCCF)cccc1[C@@H]1c2[nH]c3ccccc3c2C[C@@H](C)N1CC(F)(F)F [Example 20, 3-fluoro-N-(2-(2-methyl-3-((1R,3R)-3-methyl-2-(2,2,2-trifluoroethyl)-2,3,4,9-tetrahydro-1H-pyrido[3,4-b]indol-1-yl)phenoxy)ethyl)propan-1-amine] | 4.6 | 3.8 µM | IC50 [1]: 1 nM; IC50 [2]: 0.29 nM |
| C[C@@H]1Cc2c([nH]c3ccccc23)[C@@H](c2cccc(OCCNCCCF)c2F)N1CC(F)(F)F [Example 24, 3-fluoro-N-(2-(2-fluoro-3-((1R,3R)-3-methyl-2-(2,2,2-trifluoroethyl)-2,3,4,9-tetrahydro-1H-pyrido[3,4-b]indol-1-yl)phenoxy)ethyl)propan-1-amine] | 3.7 | 7 µM |  |
| Cc1c(OCCNCCCF)ccc(F)c1[C@@H]1c2[nH]c3ccccc3c2C[C@@H](C)N1CC(F)(F)F [Example 33, 3-fluoro-N-(2-(4-fluoro-2-methyl-3-((1R,3R)-3-methyl-2-(2,2,2-trifluoroethyl)-2,3,4,9-tetrahydro-1H-pyrido[3,4-b]indol-1-yl)phenoxy)ethyl)propan-1-amine] | 4.5 | 5.3 µM |  |
| Cc1c(OCCNCCCF)ccc(F)c1[C@@H]1c2[nH]c3ccccc3c2C[C@@H](C)N1CC(F)(F)CO [Example 45, 2,2-difluoro-3-((1R,3R)-1-(6-fluoro-3-(2-((3-fluoropropyl)amino)ethoxy)-2-methylphenyl)-3-methyl-1,3,4,9-tetrahydro-2H-pyrido[3,4-b]indol-2-yl)propan-1-ol] | 3.3 | 1.5 µM | CAMA1 Western % ER deg vs Fv [3]: 93%; MCF7 Western % ER deg vs Fv [4]: 89% |
| C[C@@H]1Cc2c([nH]c3ccccc23)[C@@H](c2cc(F)cc(OCCNCCCF)c2)N1CC(F)(F)F [Example 73, 3-fluoro-N-(2-(3-fluoro-5-((1R,3R)-3-methyl-2-(2,2,2-trifluoroethyl)-2,3,4,9-tetrahydro-1H-pyrido[3,4-b]indol-1-yl)phenoxy)ethyl)propan-1-amine] | 4.4 | 6.7 µM |  |
| C[C@@H]1Cc2c([nH]c3ccccc23)[C@@H](c2ccc(F)c(OCCNCCCF)c2)N1CC(F)(F)F [Example 74, 3-fluoro-N-(2-(2-fluoro-5-((1R,3R)-3-methyl-2-(2,2,2-trifluoroethyl)-2,3,4,9-tetrahydro-1H-pyrido[3,4-b]indol-1-yl)phenoxy)ethyl)propan-1-amine] | 4.1 | 12 µM |  |
| Cc1ccc(OCCNCCCF)c(F)c1[C@@H]1c2[nH]c3ccccc3c2C[C@@H](C)N1CC(F)(F)F [Example 80, 3-fluoro-N-(2-(2-fluoro-4-methyl-3-((1R,3R)-3-methyl-2-(2,2,2-trifluoroethyl)-2,3,4,9-tetrahydro-1H-pyrido[3,4-b]indol-1-yl)phenoxy)ethyl)propan-1-amine] | 4.5 |  |  |
| Cc1c(OCCNCCCF)ccc(F)c1[C@@H]1c2[nH]c3ccccc3c2C[C@@H](C)N1C[C@@H](C)C(=O)O [Example 117, (R)-3-((1R,3R)-1-(6-fluoro-3-(2-((3-fluoropropyl)amino)ethoxy)-2-methylphenyl)-3-methyl-1,3,4,9-tetrahydro-2H-pyrido[3,4-b]indol-2-yl)-2-methylpropanoic acid] |  |  | CAMA1 Western % ER deg vs Fv [3]: 92%; MCF7 Western % ER deg vs Fv [4]: 96% |
| Cc1c(OCCNCCC(F)F)ccc(F)c1[C@@H]1c2[nH]c3ccc(F)cc3c2C[C@@H](C)N1C[C@@H](C)C(=O)O [Example 162, (R)-3-((1R,3R)-1-(3-(2-((3,3-difluoropropyl)amino)ethoxy)-6-fluoro-2-methylphenyl)-6-fluoro-3-methyl-1,3,4,9-tetrahydro-2H-pyrido[3,4-b]indol-2-yl)-2-methylpropanoic acid] |  |  | IC50 [1]: 1.4 nM |
